Data published in ChEMBL document CHEMBL4616705, “Computer-Aided Fragment Growing Strategies to Design Dual Inhibitors of Soluble Epoxide Hydrolase and LTA4 Hydrolase” (ACS Med Chem Lett, 2020).

The chains behind the UniProt entries cited, without tags or fusion partners.
UniProt P34913, whole entry: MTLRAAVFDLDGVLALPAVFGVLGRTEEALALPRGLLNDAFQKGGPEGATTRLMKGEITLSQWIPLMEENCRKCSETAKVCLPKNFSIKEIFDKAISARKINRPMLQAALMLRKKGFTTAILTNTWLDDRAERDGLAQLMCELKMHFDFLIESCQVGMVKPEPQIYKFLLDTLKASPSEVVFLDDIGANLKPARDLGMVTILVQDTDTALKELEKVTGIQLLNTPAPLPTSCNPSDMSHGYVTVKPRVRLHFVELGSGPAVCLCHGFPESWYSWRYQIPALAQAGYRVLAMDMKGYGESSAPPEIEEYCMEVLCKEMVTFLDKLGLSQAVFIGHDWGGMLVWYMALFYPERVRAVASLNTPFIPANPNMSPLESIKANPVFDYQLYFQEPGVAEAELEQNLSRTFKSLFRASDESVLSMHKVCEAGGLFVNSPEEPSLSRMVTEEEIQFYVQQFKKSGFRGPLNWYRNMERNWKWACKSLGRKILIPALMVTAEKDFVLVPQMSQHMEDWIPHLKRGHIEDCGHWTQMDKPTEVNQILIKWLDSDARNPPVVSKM

Target: Bifunctional epoxide hydrolase 2 (Homo sapiens, UniProt P34913)
Experiment: Inhibition of recombinant human full length sEH (1 to 555 residues) expressed in Escherichia coli BL21 DE3 cells assessed as reduction in 6-methoxynaphthaldehyde formation using PHOME as substrate at 10 uM incubated for 45 mins followed by substrate addition and measured for 45 mins by fluorescence based assay relative to control

O=C(CCc1ccc(OCc2ccccc2)cc1)NCC1CCN(CCc2ccccc2)C1 (stereo unspecified)
inhibition: 4%
